This assay addresses SHP2 full-length protein (Homo sapiens, UniProt Q06124). Nature of the assay: SHP2 allosteric inhibition experiment (Homogeneous Full Length SHP-2 Assay Kit). The following applies: read-out: IC50 Values of Compounds Inhibiting SHP2; full-length SHP2 0.06 nM with SHP-2 activating peptide; ten-point, 1 μM to 0.05 nM. From the text:
The following further describes and explains the present invention in combination with test examples, but these examples are not meant to limit the scope of the present invention. SHP2 allosteric inhibition experiment
The purpose of this test is to measure the ability of the compounds to inhibit the allosteric activity of the SHP2 full-length protein. Experimental equipment: a centrifuge (5810R) is purchased from Eppendorf Company; pipettes are purchased from Eppendorf Company and Rainin Company, and microplate readers are purchased from BioTek Company of the United States, SynergyH1 multimode microplate reader.
Experimental method: Homogeneous Full Length SHP-2 Assay Kit (BPS Bioscience, #79330) is used to detect SHP2 activity in vitro. First, add 18 μL of Master Mix to 96-well low-adsorption microplate (NUNC, #267342), that is, 0.5 μL of SHP-2 activating Peptide and 5 mM DTT are included in the reaction buffer with a final concentration of 1×. […]
After incubation, add 25 μL of Substrate solution to each well, containing Substrate with a final concentration of 10 μM and DTT with a final concentration of 5 mM, and after centrifugation, continue to incubate at room temperature for 30 minutes. After the reaction, set the excitation wavelength at 340 nm, the emission wavelength at 455 nm, and the gain value to 75 on the Synergy H1 microplate reader (Biotek) for reading. […]

Chains of the proteins cited; added tags and fusions are not shown.
UniProt Q06124, whole entry: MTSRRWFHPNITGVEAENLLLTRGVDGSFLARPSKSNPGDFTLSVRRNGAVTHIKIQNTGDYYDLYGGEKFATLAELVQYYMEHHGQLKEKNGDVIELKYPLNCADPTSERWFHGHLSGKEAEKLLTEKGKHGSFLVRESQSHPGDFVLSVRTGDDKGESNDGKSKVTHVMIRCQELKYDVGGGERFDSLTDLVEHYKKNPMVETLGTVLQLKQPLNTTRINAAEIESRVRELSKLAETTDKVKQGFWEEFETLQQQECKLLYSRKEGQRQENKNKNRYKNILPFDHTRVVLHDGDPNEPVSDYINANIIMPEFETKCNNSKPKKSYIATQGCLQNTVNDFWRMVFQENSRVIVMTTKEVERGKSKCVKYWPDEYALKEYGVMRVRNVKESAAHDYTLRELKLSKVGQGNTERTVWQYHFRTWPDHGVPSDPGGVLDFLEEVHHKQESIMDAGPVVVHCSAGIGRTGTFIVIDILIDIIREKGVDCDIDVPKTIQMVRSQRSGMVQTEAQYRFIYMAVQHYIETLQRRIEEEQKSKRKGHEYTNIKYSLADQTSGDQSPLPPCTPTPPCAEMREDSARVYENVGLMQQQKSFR

The text below walks through data of patent US20240270759A1, “Preparation of SHP2 phosphatase inhibitors and its applications” (Ya Therapeutics Inc, priority 2021, published 2024).

Each structure is given as a SMILES string.

Turning to `C[C@@H]1OCC2(CCN(c3cnc4c(=O)n(-c5cccc(Cl)c5Cl)c(=O)[nH]c4n3)CC2)[C@@H]1N`, the IC50 lay in the range of 0.01 to 0.1 µM.
